In patent US6645755B1, “VECTOR MODIFIED BY SEQUENCE CODING FOR A SEQUENCE OF AMINO ACIDS CONTAINED IN A MAMMALIAN PROTEIN HAVING THE BIOLOGICAL ACTIVITY OF A MEMBRANE RECEPTOR, EXPRESSION OF THIS SEQUENCE IN TRANSFORMED UNICELLULAR CULTURES BY MEANS OF THIS VECTOR, PROCEDURE FOR STUDYING LIGANDS RECOGNIZING THESE RECEPTORS” (Centre National de la Recherche Scientifique, priority 1988, dated 2003) one finds Ki data, which are given here for 1 compound.

The chains behind the UniProt entries cited, without tags or fusion partners. Residues count along the entry.
UniProt P08588, 58-377 limits assumed: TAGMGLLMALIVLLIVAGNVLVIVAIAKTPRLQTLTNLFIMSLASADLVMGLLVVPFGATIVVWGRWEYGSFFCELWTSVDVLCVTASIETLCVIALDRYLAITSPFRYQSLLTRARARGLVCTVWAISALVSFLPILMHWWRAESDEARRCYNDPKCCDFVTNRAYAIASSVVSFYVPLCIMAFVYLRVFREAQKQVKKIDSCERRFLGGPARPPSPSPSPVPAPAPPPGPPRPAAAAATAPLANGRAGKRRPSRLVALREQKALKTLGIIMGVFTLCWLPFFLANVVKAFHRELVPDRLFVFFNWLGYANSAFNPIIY

For the assay, the target named is Huβ1AR (Homo sapiens, UniProt P08588). The assay can be described thus: Competition binding against ICYP on E. coli expressing Huβ1AR (pSMLβ1).

As usually defined, the Ki is a dissociation constant, usually derived from enzyme kinetics or from competition with a known ligand. As for `CNC[C@H](O)c1ccc(O)c(O)c1` [epinephrine], the Ki came to 696 nM.
